Earlier results, collected in patent US12138351B2, “Pharmaceutical composition for oral administration comprising aminopyrimidine derivative or pharmaceutically acceptable salt, hydrate, or solvate thereof” (Janssen Biotech, Inc., priority 2020, dated 2024).

Conditions: compared to the compound in the form of free-base

N-(5-(4-(4-((dimethylamino)methyl)-3-phenyl-1H-pyrazol-1-yl)pirimidine-2-ylamino)-4-methoxy-2-morpholinophenyl)acrylamide mesylate [Lazertinib mesylate]
solubility: excellent
